Earlier results as cited in patent publication US6099822A, “Imaging methods and compositions” (priority 1998, dated 2000).

System: acute cerebral injury
Details: in vivo; cited from earlier work

In the case of `OC[C@H]1OC(O)[C@H]([18F])[C@@H](O)[C@@H]1O` (stereo partly shown) [F-18-FDG], the “Concentration in the center of the cerebral injury” value is listed as “decreased in this region”.
